Assay results reported in US20060079453A1, “Hla binding peptides and their uses” (priority 2002, published 2006).

Chains of the proteins cited; added tags and fusions are not shown. Residues count along the entry.
UniProt P79483, 30-266: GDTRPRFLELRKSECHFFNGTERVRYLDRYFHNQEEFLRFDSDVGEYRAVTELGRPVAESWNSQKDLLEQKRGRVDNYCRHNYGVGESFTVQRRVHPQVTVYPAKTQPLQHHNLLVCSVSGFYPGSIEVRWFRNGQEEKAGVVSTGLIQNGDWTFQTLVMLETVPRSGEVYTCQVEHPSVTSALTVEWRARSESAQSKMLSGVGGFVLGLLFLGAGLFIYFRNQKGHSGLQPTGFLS
UniProt Q30154, 30-266: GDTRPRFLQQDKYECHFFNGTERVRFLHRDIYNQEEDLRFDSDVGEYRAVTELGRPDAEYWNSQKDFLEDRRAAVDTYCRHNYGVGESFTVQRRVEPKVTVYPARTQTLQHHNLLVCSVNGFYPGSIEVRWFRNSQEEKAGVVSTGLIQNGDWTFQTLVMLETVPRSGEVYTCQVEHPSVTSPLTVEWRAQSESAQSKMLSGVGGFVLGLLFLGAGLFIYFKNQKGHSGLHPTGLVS

Key:
Assay in all cases: biochemical
HLA-A*3301 = HLA-A*3301 (Homo sapiens, UniProt P04439, A270S/D185E/E176V/E277Q/E87N/F33T/G231S/H175R/I121M/I218V/I322F/K168Q/K210R/L300P/L318F/M331R/P217A/Q86R/Q94H/R138Q/T323A/T345S/T97I/V358M/Y195H); assay type: binding
HLA-DR DRB1*0301 (DR3) = HLA-DR DRB1*0301 (DR3) (Homo sapiens, UniProt P01903+P01911, A100K/A102G/A103R/A169T/F55Y/I96L/K41T/L162R/M171V/P40S/Q125H/Q178H/Q39Y/R42S/S66N/T106N/T262R/W38E/Y61H); assay type: binding
HLA-DR DRB1*0802 (DR8) = HLA-DR DRB1*0802 (DR8) (Homo sapiens, UniProt P01903+P01911, A100R/A103L/A169T/F76Y/H45Y/I96F/K41T/L162R/M171V/P40S/Q125H/Q178H/Q39Y/Q99D/R218S/R42G/S66Y/V115G/W38E); assay type: binding
HLA-DR DRB1*0901 (DR9) = HLA-DR DRB1*0901 (DR9) (Homo sapiens, UniProt P01903+P01911, A100R/A103E/D57H/D86V/F55Y/F60I/F76Y/I96F/K127E/L162R/M171V/P40D/Q125H/Q99R/R33Q/R42F/S133A/S66N/T210M/V115G/W38K/Y107V/Y59G/Y89S); assay type: binding; conditions: DRB1 *0901
[1] = target: HLA-DQ DQA1*0501/B*0201 (DQ2) (Homo sapiens, UniProt P01909+P01920, A45G/A70V/D89A/E106A/E77G/E98D/H199R/L107V/N214S/P84L/P87L/T103K/T109R/T172A/T60S/V78E/V99I/Y58L/Y62S/Y69I/Y79F)
[2] = target: HLA-DQ DQA1*0301/B*0302 (DQ8) (Homo sapiens, UniProt P01909+P01920, A209T/A45G/C70Q/D89A/DUP78-78/E183D/E77G/F237L/G63E/H199R/I129T/K197E/L178F/L74F/L98V/Q57E/Q76R/S185I/S97I/T217I/T49S/V73L/Y58L)
HLA-A*6801 = HLA-A*6801 (Homo sapiens, UniProt P04439, A269V/D185E/E176V/E277Q/E87N/F33Y/G231S/I121M/I166T/I218V/L180W/L300P/L318F/N151K/P208A/P217A/Q86R/R169H/T345S); assay type: binding
HLA-DR DRB3*0101 (DR52) = HLA-DR DRB3*0101 (DR52) (Homo sapiens, UniProt P01903+P79483); assay type: binding
HLA-DR DRB1*1101 (DR11) = HLA-DR DRB1*1101 (DR11) (Homo sapiens, UniProt P01903+P01911, A100R/A169T/A87E/I96F/K41T/L162R/M171V/P40S/Q125H/Q178H/Q39Y/Q99D/R42S/S66Y/T262R/V115G/W38E); assay type: binding; conditions: DRB1 *1101
HLA-DR DRB5*0101 (DR51) = HLA-DR DRB5*0101 (DR51) (Homo sapiens, UniProt P01903+Q30154); assay type: binding; conditions: DRB5 *0101
HLA-A*0301 = HLA-A*0301 (Homo sapiens, UniProt P04439); assay type: binding; conditions: read-out: A*0301 binding affinity (IC50)
HLA-A*1101 = HLA-A*1101 (Homo sapiens, UniProt P04439, A114D/D185E/E176A/F33Y/L180Q/S129P/T187R); assay type: binding; conditions: read-out: A*1101 binding affinity (IC50)
HLA-A*3101 = HLA-A*3101 (Homo sapiens, UniProt P04439, A270S/D185E/E176V/E277Q/F33T/G231S/G80R/H175R/I121M/I218V/I322F/K168Q/L300P/L318F/M331R/P217A/Q94H/R138Q/T323A/T345S/T97I/V358M); assay type: binding; conditions: read-out: A*3101 binding affinity (IC50)

CC(C)C[C@H](NC(=O)[C@@H]1CCCN1C(=O)[C@H](CC(C)C)NC(=O)[C@@H](N)CCCNC(=N)N)C(=O)N[C@@H](CC(C)C)C(=O)N1CCC[C@H]1C(=O)N[C@@H](CCCCN)C(=O)N[C@H](C(=O)N[C@@H](Cc1c[nH]c2ccccc12)C(=O)N[C@@H](CCCCN)C(=O)O)[C@@H](C)O
IC50 (HLA-A*3301): 11.4 µM

CC(C)C[C@H](NC(=O)[C@H](C)NC(=O)[C@H](CCC(N)=O)NC(=O)CNC(=O)[C@H](CCCNC(=N)N)NC(=O)[C@H](CC(C)C)NC(=O)[C@@H](NC(=O)[C@H](C)NC(=O)[C@H](CCC(=O)O)NC(=O)[C@@H](N)CO)C(C)C)C(=O)N[C@@H](CC(C)C)C(=O)N[C@H](C(=O)N[C@@H](CC(N)=O)C(=O)N[C@@H](CO)C(=O)N[C@@H](CO)C(=O)O)C(C)C
IC50 (HLA-DR DRB1*0301 (DR3)): 70.9 µM
IC50 (HLA-DR DRB1*0802 (DR8)): > 63.6 µM
IC50 (HLA-DR DRB1*0901 (DR9)): > 78.9 µM
IC50 [1]: 9.76 µM
IC50 [2]: 36.4 µM

C[C@@H](O)[C@H](NC(=O)[C@H](CCCNC(=N)N)NC(=O)[C@H](CO)NC(=O)[C@H](CO)NC(=O)[C@H](CCCNC(=N)N)NC(=O)[C@H](CS)NC(=O)[C@@H](NC(=O)[C@@H](N)CO)[C@@H](C)O)C(=O)N[C@@H](CCCNC(=N)N)C(=O)N[C@@H](CCCNC(=N)N)C(=O)O
IC50 (HLA-A*3301): 1.02 µM

CC(C)[C@H](NC(=O)[C@@H](N)[C@@H](C)O)C(=O)N[C@@H](CCC(N)=O)C(=O)NCC(=O)N1CCC[C@H]1C(=O)NCC(=O)N1CCC[C@H]1C(=O)NCC(=O)N[C@@H](CCC(=O)O)C(=O)N[C@@H](CCCCN)C(=O)O
IC50 (HLA-A*6801): 0.195 µM

CC(C)C[C@H](NC(=O)[C@@H](NC(=O)[C@H](C)NC(=O)[C@H](CCC(=O)O)NC(=O)[C@H](CO)NC(=O)[C@H](CC(C)C)NC(=O)[C@H](CC(C)C)NC(=O)[C@H](C)NC(=O)[C@H](CC(C)C)NC(=O)CNC(=O)[C@H](CCC(N)=O)NC(=O)[C@H](Cc1c[nH]c2ccccc12)NC(=O)[C@@H](NC(=O)[C@H](CCC(=O)O)NC(=O)[C@@H](N)C(C)C)C(C)C)C(C)C)C(=O)O
IC50 (HLA-DR DRB3*0101 (DR52)): > 38.2 µM
IC50 [1]: 0.098 µM
IC50 [2]: 0.014 µM

CC(C)C[C@H](NC(=O)[C@H](CC(C)C)NC(=O)[C@H](C)NC(=O)[C@H](CC(C)C)NC(=O)CNC(=O)[C@H](CCC(N)=O)NC(=O)[C@H](Cc1c[nH]c2ccccc12)NC(=O)[C@@H](NC(=O)[C@H](CCC(=O)O)NC(=O)[C@@H](NC(=O)[C@H](C)NC(=O)[C@H](CCC(N)=O)NC(=O)[C@H](CCC(N)=O)NC(=O)CNC(=O)[C@@H](N)C(C)C)C(C)C)C(C)C)C(=O)O
IC50 (HLA-DR DRB1*0301 (DR3)): > 174 µM
IC50 (HLA-DR DRB1*0802 (DR8)): > 40.5 µM
IC50 (HLA-DR DRB1*0901 (DR9)): > 78.9 µM
IC50 (HLA-DR DRB1*1101 (DR11)): > 17.2 µM
IC50 (HLA-DR DRB3*0101 (DR52)): > 38.2 µM
IC50 (HLA-DR DRB5*0101 (DR51)): > 7.79 µM
IC50 [1]: 0.838 µM
IC50 [2]: 4.41 µM

CSCC[C@H](NC(=O)[C@H](CCCNC(=N)N)NC(=O)[C@H](CCCCN)NC(=O)[C@H](Cc1c[nH]c2ccccc12)NC(=O)[C@H](C)NC(=O)[C@H](Cc1ccc(O)cc1)NC(=O)[C@H](Cc1ccccc1)NC(=O)[C@H](CC(N)=O)NC(=O)[C@@H](NC(=O)[C@H](CCCCN)NC(=O)[C@@H](NC(=O)[C@H](CC(=O)O)NC(=O)[C@@H]1CCCN1C(=O)[C@@H](N)C(C)C)[C@@H](C)O)C(C)C)C(=O)N[C@@H](CCC(=O)O)C(=O)O
IC50 [1]: > 147 µM
IC50 [2]: > 46.7 µM

CC[C@H](C)[C@H](NC(=O)[C@H](CCCNC(=N)N)NC(=O)[C@@H](NC(=O)[C@@H](NC(=O)[C@@H](N)C(C)C)[C@@H](C)O)C(C)C)C(=O)NCC(=O)NCC(=O)N[C@@H](CCC(N)=O)C(=O)N[C@@H](CC(C)C)C(=O)N[C@@H](CCCCN)C(=O)O
IC50 (HLA-A*3301): 40.3 µM

HLNIPIGFK
IC50 (HLA-A*0301): 0.0023 µM
IC50 (HLA-A*1101): 0.0013 µM
IC50 (HLA-A*3101): 0.183 µM
IC50 (HLA-A*6801; read-out: A*6801 binding affinity (IC50)): 0.0028 µM

Where two headings read alike, the source gives them in different places.
